Laboratory results as given in ChEMBL document CHEMBL3351225, “Design, synthesis, and structure-activity and structure-pharmacokinetic relationship studies of novel [6,6,5] tricyclic fused oxazolidinones leading to the discovery of a potent, selective, and orally bioavailable FXa inhibitor” (J Med Chem, 2014).

How the values were obtained:
Homo sapiens [1] = organism: Homo sapiens; assay: Selectivity index, ratio of IC50 for human trypsin to IC50 for human factor 10a
Homo sapiens [2] = organism: Homo sapiens; assay: Selectivity index, ratio of IC50 for human factor 11a to IC50 for human factor 10a
Homo sapiens [3] = organism: Homo sapiens; assay: Selectivity index, ratio of IC50 for human factor 7a to IC50 for human factor 10a
Homo sapiens [4] = organism: Homo sapiens; assay: Selectivity index, ratio of IC50 for human factor 2a to IC50 for human factor 10a
Homo sapiens [5] = organism: Homo sapiens; assay: Selectivity index, ratio of IC50 for human factor 9a to IC50 for human factor 10a

Measured: Ratio IC50

O=C(NC[C@@H]1OC(=O)N2c3ccc(N4CCOCC4=O)cc3CC[C@@H]12)c1ccc(Cl)s1
> 20000: all assays above
